The values below come from patent US20020006436A1, “USE OF A LIQUID CRYSTALLINE PHASE FOR DETERMINING THE DISTRIBUTION OF A CHEMICAL SUBSTANCE BETWEEN A HYDROPHOBIC AND A HYDROPHILIC ENVIRONMENT” (priority 1996, published 2002).

Data set [1] can be described thus: Distribution coefficient in the system octanol/water.
The nature of data set [2]: Distribution of alfentanil, fentanyl and sufentanil, cubic phase/water, HPLC of water phase.

Only a part of the results on these compounds is given; other tests are left out.

Turning to `CCC(=O)N(c1ccccc1)C1CCN(CCc2ccccc2)CC1`, the “distribution coefficient in the system oktanol/water” value in data set [1] is 813.
Take `CCC(=O)N(c1ccccc1)C1(COC)CCN(CCn2nnn(CC)c2=O)CC1`: in data set [1], the “distribution coefficient in the system oktanol/water” value is reported as 128. The “[X]w” value in data set [2] (pH 4.09, 96 h, [X]0 0.500 (alfentanil) or 0.200 (fentanyl) mg/litre) stood at 0.203 mg/mL; in data set [2] (pH 7.33, 96 h, [X]0 0.500 (alfentanil) or 0.200 (fentanyl) mg/litre), 0.0148 mg/mL; in data set [2] (pH 9.66, 96 h, [X]0 0.500 (alfentanil) or 0.200 (fentanyl) mg/litre), 0.0180 mg/mL. In addition, the Kbl/w in data set [2] (pH 4.09, equation 2, 96 h) is recorded as 4.4; in data set [2] (pH 7.33, equation 2, 96 h), 98; in data set [2] (pH 9.66, equation 2, 96 h), 80.
In the case of `CCC(=O)N(c1ccccc1)C1(COC)CCN(CCc2cccs2)CC1`, in data set [1], the “distribution coefficient in the system oktanol/water” value was 1778. The Kbl/w was determined as 19.6 in data set [2] (pH 4.0, equation 2, 96 h) and 53 in data set [2] (pH 6.0, equation 2, 96 h). Also, the “[X]w” value in data set [2] (pH 6.0, 96 h, [X]0 0.100 mg/litre) stood at 0.00535 mg/mL.
